Assay results published in IntAct's records for PubMed 22354040.

B1: Replication factor A protein 1 (Saccharomyces cerevisiae), P22336 (parent)
chain: MSSVQLSRGDFHSIFTNKQRYDNPTGGVYQVYNTRKSDGANSNRKNLIMISDGIYHMKALLRNQAASKFQSMELQRGDIIRVIIAEPAIVRERKKYVLLVDDFELVQSRADMVNQTSTFLDNYFSEHPNETLKDEDITDSGNVANQTNASNAGVPDMLHSNSNLNANERKFANENPNSQKTRPIFAIEQLSPYQNVWTIKARVSYKGEIKTWHNQRGDGKLFNVNFLDTSGEIRATAFNDFATKFNEILQEGKVYYVSKAKLQPAKPQFTNLTHPYELNLDRDTVIEECFDESNVPKTHFNFIKLDAIQNQEVNSNVDVLGIIQTINPHFELTSRAGKKFDRRDITIVDDSGFSISVGLWNQQALDFNLPEGSVAAIKGVRVTDFGGKSLSMGFSSTLIPNPEIPEAYALKGWYDSKGRNANFITLKQEPGMGGQSAASLTKFIAQRITIARAQAENLGRSEKGDFFSVKAAISFLKVDNFAYPACSNENCNKKVLEQPDGTWRCEKCDTNNARPNWRYILTISIIDETNQLWLTLFDDQAKQLLGVDANTLMSLKEEDPNEFTKITQSIQMNEYDFRIRAREDTYNDQSRIRYTVANLHSLNYRAEADYLADELSKALLA
partner: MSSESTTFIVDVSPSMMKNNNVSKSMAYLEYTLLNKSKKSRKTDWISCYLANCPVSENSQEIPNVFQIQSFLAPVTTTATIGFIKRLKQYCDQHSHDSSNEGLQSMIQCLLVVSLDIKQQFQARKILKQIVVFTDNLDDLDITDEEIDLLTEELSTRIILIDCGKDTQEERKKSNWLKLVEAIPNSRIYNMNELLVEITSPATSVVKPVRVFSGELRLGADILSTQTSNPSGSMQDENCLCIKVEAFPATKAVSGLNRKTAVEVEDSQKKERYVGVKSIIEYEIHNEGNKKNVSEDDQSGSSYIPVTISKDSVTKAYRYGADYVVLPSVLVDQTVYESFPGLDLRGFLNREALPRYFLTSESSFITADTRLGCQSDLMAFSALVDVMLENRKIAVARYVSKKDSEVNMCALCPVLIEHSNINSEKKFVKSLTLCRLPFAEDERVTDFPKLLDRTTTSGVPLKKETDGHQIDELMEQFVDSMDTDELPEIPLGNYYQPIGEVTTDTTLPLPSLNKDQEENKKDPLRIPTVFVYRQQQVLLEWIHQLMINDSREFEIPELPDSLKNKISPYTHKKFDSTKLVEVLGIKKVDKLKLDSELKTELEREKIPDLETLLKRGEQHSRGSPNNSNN

Variants of: B1
Details: with ku80_yeast YKU80, Q04437

Variant | effect of a mutation on the interaction
D228Y | decreasing interaction
